Patent publication US9440957B2, “Compounds and compositions for modulating EGFR Activity” (Novartis AG, priority 2012, dated 2016)
Read-outs that look alike come from different tables or passages of the source.

Sequences of proteins named here, by UniProt entry; tags and fusion partners are left off. Residues count along the entry.
UniProt P00533, 25-1210 T790M/L858R: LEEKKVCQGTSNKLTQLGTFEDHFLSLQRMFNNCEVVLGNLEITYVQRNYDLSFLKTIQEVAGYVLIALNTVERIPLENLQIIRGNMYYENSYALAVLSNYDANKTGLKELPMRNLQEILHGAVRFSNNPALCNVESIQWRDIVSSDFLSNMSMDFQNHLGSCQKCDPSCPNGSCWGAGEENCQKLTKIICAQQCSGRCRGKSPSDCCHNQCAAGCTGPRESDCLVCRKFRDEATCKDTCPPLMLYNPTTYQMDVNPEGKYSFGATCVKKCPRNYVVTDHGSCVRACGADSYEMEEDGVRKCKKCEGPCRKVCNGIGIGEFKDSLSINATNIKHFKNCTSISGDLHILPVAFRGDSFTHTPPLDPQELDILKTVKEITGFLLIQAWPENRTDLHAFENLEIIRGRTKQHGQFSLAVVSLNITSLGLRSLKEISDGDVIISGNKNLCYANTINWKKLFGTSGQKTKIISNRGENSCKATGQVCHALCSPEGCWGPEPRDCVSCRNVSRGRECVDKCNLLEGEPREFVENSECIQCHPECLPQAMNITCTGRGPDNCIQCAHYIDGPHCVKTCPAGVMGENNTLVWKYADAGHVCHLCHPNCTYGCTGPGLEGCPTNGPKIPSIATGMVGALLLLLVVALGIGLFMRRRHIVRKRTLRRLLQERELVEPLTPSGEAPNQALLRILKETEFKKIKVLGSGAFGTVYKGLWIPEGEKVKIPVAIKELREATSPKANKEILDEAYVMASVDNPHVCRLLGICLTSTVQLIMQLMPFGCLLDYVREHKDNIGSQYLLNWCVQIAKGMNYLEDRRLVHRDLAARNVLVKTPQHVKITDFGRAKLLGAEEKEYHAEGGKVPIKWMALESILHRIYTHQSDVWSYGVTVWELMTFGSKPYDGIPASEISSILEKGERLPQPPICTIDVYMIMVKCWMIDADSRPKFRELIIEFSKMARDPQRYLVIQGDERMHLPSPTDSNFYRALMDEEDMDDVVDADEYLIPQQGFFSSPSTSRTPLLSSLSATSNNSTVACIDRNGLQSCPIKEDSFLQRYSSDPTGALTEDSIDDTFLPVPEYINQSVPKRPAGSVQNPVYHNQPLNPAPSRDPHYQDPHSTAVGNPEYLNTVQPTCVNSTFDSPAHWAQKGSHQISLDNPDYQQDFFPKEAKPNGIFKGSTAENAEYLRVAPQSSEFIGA
UniProt P00533, 25-1210: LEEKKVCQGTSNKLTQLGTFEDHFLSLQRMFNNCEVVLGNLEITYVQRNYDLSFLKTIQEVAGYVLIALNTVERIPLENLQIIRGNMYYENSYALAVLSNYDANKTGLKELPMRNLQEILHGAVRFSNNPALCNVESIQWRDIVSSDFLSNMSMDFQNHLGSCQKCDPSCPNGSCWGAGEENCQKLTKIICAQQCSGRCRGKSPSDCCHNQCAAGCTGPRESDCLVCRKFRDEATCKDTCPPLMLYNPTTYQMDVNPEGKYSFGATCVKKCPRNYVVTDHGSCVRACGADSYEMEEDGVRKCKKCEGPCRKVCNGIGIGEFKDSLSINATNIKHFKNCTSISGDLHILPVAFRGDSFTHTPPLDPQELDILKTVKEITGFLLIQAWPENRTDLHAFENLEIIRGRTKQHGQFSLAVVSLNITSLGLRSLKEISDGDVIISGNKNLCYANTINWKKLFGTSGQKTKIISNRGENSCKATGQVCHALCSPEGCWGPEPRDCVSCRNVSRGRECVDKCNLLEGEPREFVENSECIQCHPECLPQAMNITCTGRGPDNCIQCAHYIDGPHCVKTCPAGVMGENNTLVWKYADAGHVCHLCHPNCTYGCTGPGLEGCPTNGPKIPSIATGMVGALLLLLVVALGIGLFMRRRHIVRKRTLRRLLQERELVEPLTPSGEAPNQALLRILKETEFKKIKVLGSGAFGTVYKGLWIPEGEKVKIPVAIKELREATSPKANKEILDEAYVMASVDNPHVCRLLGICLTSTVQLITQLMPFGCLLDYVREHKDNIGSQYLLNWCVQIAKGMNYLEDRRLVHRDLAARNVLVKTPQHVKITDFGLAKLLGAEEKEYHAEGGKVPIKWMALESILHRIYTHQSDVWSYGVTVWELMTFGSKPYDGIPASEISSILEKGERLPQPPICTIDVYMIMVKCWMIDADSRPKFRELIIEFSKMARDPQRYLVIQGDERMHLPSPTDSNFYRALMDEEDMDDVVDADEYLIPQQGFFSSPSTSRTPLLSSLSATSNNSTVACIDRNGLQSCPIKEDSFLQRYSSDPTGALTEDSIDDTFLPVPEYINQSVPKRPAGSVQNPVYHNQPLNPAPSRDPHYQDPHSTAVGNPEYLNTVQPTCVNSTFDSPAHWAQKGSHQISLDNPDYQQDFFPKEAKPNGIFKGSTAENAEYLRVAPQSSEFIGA
UniProt P00533, 25-1210 L858R: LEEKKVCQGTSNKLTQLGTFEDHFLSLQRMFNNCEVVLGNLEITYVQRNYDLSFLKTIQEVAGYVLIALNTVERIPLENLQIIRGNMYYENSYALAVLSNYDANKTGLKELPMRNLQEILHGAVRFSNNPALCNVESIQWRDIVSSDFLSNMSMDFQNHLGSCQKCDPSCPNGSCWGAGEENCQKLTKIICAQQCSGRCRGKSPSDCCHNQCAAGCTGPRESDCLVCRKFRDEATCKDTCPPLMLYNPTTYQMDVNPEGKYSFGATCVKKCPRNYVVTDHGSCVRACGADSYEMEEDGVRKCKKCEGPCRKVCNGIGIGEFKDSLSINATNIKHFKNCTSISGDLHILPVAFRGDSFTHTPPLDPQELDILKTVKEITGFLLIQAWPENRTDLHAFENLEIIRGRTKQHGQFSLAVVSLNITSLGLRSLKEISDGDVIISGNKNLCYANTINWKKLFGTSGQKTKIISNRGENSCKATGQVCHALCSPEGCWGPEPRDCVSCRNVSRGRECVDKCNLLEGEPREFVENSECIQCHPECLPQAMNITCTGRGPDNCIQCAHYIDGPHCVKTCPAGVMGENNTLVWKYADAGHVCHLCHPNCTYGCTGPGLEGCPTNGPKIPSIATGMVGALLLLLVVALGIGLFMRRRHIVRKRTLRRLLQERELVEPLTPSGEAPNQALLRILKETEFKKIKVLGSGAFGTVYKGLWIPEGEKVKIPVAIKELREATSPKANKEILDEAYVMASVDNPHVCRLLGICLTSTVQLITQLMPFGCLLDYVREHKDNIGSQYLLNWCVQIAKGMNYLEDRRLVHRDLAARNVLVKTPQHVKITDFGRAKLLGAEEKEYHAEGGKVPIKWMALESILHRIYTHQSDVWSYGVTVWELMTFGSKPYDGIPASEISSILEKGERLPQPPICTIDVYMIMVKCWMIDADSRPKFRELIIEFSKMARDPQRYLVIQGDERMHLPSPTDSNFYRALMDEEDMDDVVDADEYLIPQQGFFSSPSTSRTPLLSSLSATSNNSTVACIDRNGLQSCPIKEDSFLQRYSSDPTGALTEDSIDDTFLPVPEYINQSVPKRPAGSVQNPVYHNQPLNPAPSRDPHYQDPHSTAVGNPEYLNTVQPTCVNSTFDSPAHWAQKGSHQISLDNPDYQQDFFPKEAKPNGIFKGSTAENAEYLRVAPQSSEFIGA
UniProt P00533, 669-1210 T790M/L858R: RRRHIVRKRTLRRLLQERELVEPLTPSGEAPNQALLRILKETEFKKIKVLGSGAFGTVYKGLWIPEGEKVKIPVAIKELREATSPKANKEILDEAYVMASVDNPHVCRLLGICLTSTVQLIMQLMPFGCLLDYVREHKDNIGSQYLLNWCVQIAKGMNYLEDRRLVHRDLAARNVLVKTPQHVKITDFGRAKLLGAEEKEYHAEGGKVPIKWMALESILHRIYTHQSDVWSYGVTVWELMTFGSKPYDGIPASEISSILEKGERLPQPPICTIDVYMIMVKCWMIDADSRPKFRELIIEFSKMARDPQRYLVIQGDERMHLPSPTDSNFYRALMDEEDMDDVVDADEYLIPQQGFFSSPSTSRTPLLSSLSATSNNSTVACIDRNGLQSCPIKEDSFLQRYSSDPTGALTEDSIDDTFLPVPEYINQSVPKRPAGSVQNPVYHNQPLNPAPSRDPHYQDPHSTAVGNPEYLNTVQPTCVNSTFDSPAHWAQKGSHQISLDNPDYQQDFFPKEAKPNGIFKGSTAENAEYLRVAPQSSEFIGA

Legend:
H1975 (EGFR L858/T790M) = H1975 (EGFR L858/T790M) (Homo sapiens, UniProt P00533, L858R/T790M); assay: EGFR target modulation in H1975 cell line (phospho-EGFR Y1173 ELISA); type: cell-based
Experimental: (§1) EGFR Target Modulation in H1975, H3255 and HCC827 Cell Lines Tissue Culture. Cells were maintained in 10% FBS/RPMI supplemented with 100 μg/ml Penicillin/Streptomycin (Hyclone #SH30236.01). […] The cells were allowed to incubate overnight in a 37° C., 5% CO2 humidified tissue culture incubator. […] The serial diluted compounds were transferred to the plate containing cells by using a 50 nl Pin Head device (Perkin Elmer) and the cells were placed back in the incubator for 3 hours. Phospho-EGFR ([…]) Target Modulation Assay. The media was reduced to 20 ul using a Bio-Tek ELx 405 SelectTM plate washer. […] The plates were shaken at 4° C. for 20 minutes. An aliquot of 25 ul from each well was transferred to pEGFR(Y1173) ELISA plates for analysis. Phospho-EGFR ([…]) ELISA. Solid white high-binding ELISA plates (Greiner #781074) were coated with 5 ug/ml anti-EGFR capture antibody (R&D Systems #AF231) overnight in 50 mM carbonate/bicarbonate pH 9.5 buffer. Plates were blocked with 1% BSA (Sigma #A7030) in PBS for 1 hour at room temperature. Wash steps were carried out with a Bio-Tek ELx405 SelectTM using 4 cycles of 100 ul TBS-T (20 mM Tris, 137 mM NaCl, 0.05% Tween-20) per well. […] Lysis was allowed to occur for 20 minutes on ice. A 25 ul aliquot was added to each well of the blocked ELISA plate and incubated overnight at 4° C. with gentle shaking. […] After washing, 1:2,000 anti-rabbit-HRP (Cell Signaling #7074) in 0.2% BSA/TBS-T was added and incubated for 1 hour at room temperature. Chemiluminescent detection was carried out with SuperSignal ELISA Pico substrate (ThermoScientific #37069). Signal was read on EnVision plate reader using built-in UltraLUM setting. Data Analysis. Control cells treated with EGF were set to 100% maximum response. […] With these parameters, the IC50's for each compound in each cell line was calculated using non-linear curve fitting analysis.

HEKn (EGFR WT) = HEKn (EGFR WT) (Homo sapiens, UniProt P00533); assay: EGFR target modulation in HEKn (EGFR-WT) cell line (phospho-EGFR Y1173 ELISA); type: cell-based; conditions: value outside parentheses
Experimental: EGFR Target Modulation in HEKn (EGFR-WT) Cell Line Tissue Culture. Human neonatal epithelial keratinocytes (Invitrogen #C-001-5C) were maintained in EpiLife media (Invitrogen #[…]) supplemented with growth factors (Invitrogen #S-001-5). Cells were harvested with 0.05% Trypsin/EDTA (Hyclone #SH30236.01) and quenched with 5% FBS/EpiLife media. […] The serial diluted compounds were transferred to the plate containing cells by using a 50 nl Pin Head device (Perkin Elmer) and the cells were placed back in the incubator for 3 hours. […] Phospho-EGFR (Y1173) ELISA. Solid white high-binding ELISA plates (Greiner #781074) were coated with 5 ug/ml anti-EGFR capture antibody (R&D Systems #AF231) overnight in 50 mM carbonate/bicarbonate pH 9.5 buffer. […] Wash steps were carried out with a Bio-Tek ELx405 SelectTM using 4 cycles of 100 ul TBS-T (20 mM Tris, 137 mM NaCl, 0.05% Tween-20) per well. […] Lysis was allowed to occur for 20 minutes on ice. A 25 ul aliquot was added to each well of the blocked ELISA plate and incubated overnight at 4° C. with gentle shaking. […] After washing, 1:2,000 anti-rabbit-HRP (Cell Signaling #7074) in 0.2% BSA/TBS-T was added and incubated for 1 hour at room temperature. […] Signal was read on EnVision plate reader using built-in UltraLUM setting. […] With these parameters, the IC50's for each compound in each cell line was calculated using non-linear curve fitting analysis.

[1] = molecular target: human EGFR WT (NIH/3T3 cells, EGF-induced) (Homo sapiens, UniProt P00533); assay: EGFR target modulation in engineered NIH/3T3 cell lines (phospho-EGFR Y1068 AlphaLISA), EGFR WT; type: cell-based; conditions: engineered NIH/3T3 cells, read-out: NIH3T3 IC50 (μM) EGFR (WT)
Experimental: (§2) EGFR Target Modulation in Engineered NIH/3T3 Cell Lines Tissue Culture.
(§3) The cells were harvested with 0.05% Trypsin/EDTA (Hyclone #SH30236.01), re-suspended in 5% FBS/DMEM Pen/Strep without Puromycin and plated at 9,000 cells per well in 50 μl of media in a 384-well black plate with clear bottoms (Greiner #789068G). The cells were allowed to incubate overnight in a 37° C., 5% CO2 humidified tissue culture incubator. A 12-point test compound curve was prepared by serial diluting a 10 μM stock 1:3 in DMSO in a 384-well compound plate (Greiner #789201L). The serial diluted compounds were transferred to the plate containing cells by using a 50 nl Pin Head device (Perkin Elmer) and the cells were placed back in the incubator for 3 hours. Only the EGFR WT-expressing cells were induced with 50 ng/ml EGF (Preprotech #AF-100-15) for 5 minutes before lysis. […] The plates were shaken at 4° C. for 5 minutes with foil top at maximum speed. […] The plates were sealed with a foil top and frozen at −80° C. and thawed when needed.
(§4) The frozen aliquots were thawed and briefly centrifuged. All antibodies and beads were diluted in 1× AlphaLISA HiBlock Buffer (PE #AL004C). […]
(§5) With these parameters, the IC50's for each compound in each cell line was calculated using non-linear curve fitting analysis.

[2] = molecular target: human EGFR L858R (NIH/3T3 cells) (Homo sapiens, UniProt P00533, L858R); assay: EGFR target modulation in engineered NIH/3T3 cell lines (phospho-EGFR Y1068 AlphaLISA), EGFR L858R; type: cell-based; conditions: engineered NIH/3T3 cells, read-out: NIH3T3 IC50 (μM) EGFR (L858R)
Experimental: as §2, §3, §4, §5

H3255 (EGFR L858R) = H3255 (EGFR L858R) (Homo sapiens, UniProt P00533, L858R); assay: EGFR target modulation in H3255 cell line (phospho-EGFR Y1173 ELISA); type: cell-based
Experimental: as §1

EGFR(L858R/T790M) = molecular target: T1, EGFR(L858R/T790M) (Homo sapiens, UniProt P00533, L858R/T790M); assay: EGFR biochemical assay (HTRF), IC50 determinations
T1 construct: purchased from Carna (GST-a.a. 669-1210)
Experimental: All EGFR biochemical assays were carried out by HTRF method. The EGFR(L858R/T790M) enzyme were purchased from Carna (GST-a.a. 669-1210). The substrate peptide Biotin-TK-peptide was purchased from Cis-Bio. The reaction mixtures contained 1 μM peptide substrate, 10 μM ATP, and 0.036 nM EGFR(L858R/T790M) in the reaction buffer (50 mM HEPES pH 7.1, 10 mM MgCl2, 0.01% BSA, 1 mM TCEP and 0.1 mM Na3VO4) at a final volume of 10 μL. All reactions were carried out at room temperature in white ProxiPlate™ 384-well Plus plates (PerkinElmer) and were quenched with 5 μL of 0.2 M EDTA at 60 min. Five L of the detection reagents (2.5 ng PT66K and 0.05 μg SAXL per well) were added, the plates were incubated at room temperature for 1 h and then read in EnVision reader. […] For no-preincubation condition, the compounds were added to the assay solution containing ATP and peptide, and the reaction was initiated by addition of enzyme. For pre-incubation conditions, the compounds were added to the assay solution containing enzyme and peptide, and pre-incubated at room temperature for desired period of time, then the reaction was initiated by addition of ATP.

[3] = molecular target: human EGFR L858R/T790M (NIH/3T3 cells) (Homo sapiens, UniProt P00533, L858R/T790M); assay: EGFR target modulation in engineered NIH/3T3 cell lines (phospho-EGFR Y1068 AlphaLISA), EGFR L858R/T790M; type: cell-based; conditions: engineered NIH/3T3 cells, read-out: NIH3T3 IC50 (μM) EGFR (L858R/T790M)
Experimental: as §2, §3, §4, §5

HaCaT (EGFR WT) = HaCaT (EGFR WT) (Homo sapiens, UniProt P00533); assay: EGFR target modulation in HaCaT (EGFR-WT) cell line (phospho-EGFR Y1173 ELISA); type: cell-based; conditions: value in parentheses
Experimental: EGFR Target Modulation in HaCaT (EGFR-WT) Cell Line Tissue Culture. […] The serial diluted compounds were transferred to the plate containing cells by using a 50 nl Pin Head device (Perkin Elmer) and the cells were placed back in the incubator for 3 hours. […] Phospho-EGFR ([…]) ELISA. Solid white high-binding ELISA plates (Greiner #781074) were coated with 5 ug/ml anti-EGFR capture antibody (R&D Systems #AF231) overnight in 50 mM carbonate/bicarbonate pH 9.5 buffer. […] Wash steps were carried out with a Bio-Tek ELx405 SelectTM using 4 cycles of 100 ul TBS-T (20 mM Tris, 137 mM NaCl, 0.05% Tween-20) per well. […] Lysis was allowed to occur for 20 minutes on ice. A 25 ul aliquot was added to each well of the blocked ELISA plate and incubated overnight at 4° C. with gentle shaking. […] After washing, 1:2,000 anti-rabbit-HRP (Cell Signaling #7074) in 0.2% BSA/TBS-T was added and incubated for 1 hour at room temperature. Chemiluminescent detection was carried out with SuperSignal ELISA Pico substrate (ThermoScientific #37069). Signal was read on EnVision plate reader using built-in UltraLUM setting. Data Analysis. Control cells treated with EGF were set to 100% maximum response. […] With these parameters, the IC50's for each compound in each cell line was calculated using non-linear curve fitting analysis.

[4] = EGFR (L858R/T790M) with 90 min pre-incubation, read-out: IC50 (μM) Column B
[5] = EGFR (L858R/T790M) with no pre-incubation, read-out: IC50 (μM) Column A

Row | IC50 (H1975 (EGFR L858/T790M)) [nM] | IC50 (HEKn (EGFR WT)) [nM] | IC50 [1] [µM] | IC50 [2] [µM] | IC50 (H3255 (EGFR L858R)) [nM] | IC50 (EGFR(L858R/T790M); [4]) [µM] | IC50 (EGFR(L858R/T790M); [5]) [µM] | IC50 [3] [µM] | IC50 (HaCaT (EGFR WT)) [nM] | SMILES
1 | 13 | 1180 | 0.259 | 0.015 | 30 | < 0.001 | 0.008 | 0.011 |  | Cc1cc(C(=O)Nc2nc3cccc(Cl)c3n2[C@@H]2CCCCN(C(=O)/C=C/CN(C)C)C2)ccn1 [Example 5, (R,E)-N-(7-chloro-1-(1-(4-(dimethylamino)but-2-enoyl)azepan-3-yl)-1H-benzo[d]imidazol-2-yl)-2-methylisonicotinamide]
2 | 3 |  |  |  | 5 | < 0.001 | 0.005 |  | 83 | [2H]C([2H])([2H])N(C/C=C/C(=O)N1CCCC[C@@H](n2c(NC(=O)c3ccnc(C)c3)nc3cccc(Cl)c32)C1)C([2H])([2H])[2H] [Example 17-189]
3 | 277 |  |  |  | 295 | 0.025 | 0.374 |  | > 10000 | Cc1cc(C(=O)Nc2nc3cccc(Cl)c3n2[C@H]2CCCCN(C(=O)/C=C/CN(C)C)C2)ccn1 [Example 17-196]
